The chains behind the UniProt entries cited, without tags or fusion partners.
UniProt P23977, whole entry: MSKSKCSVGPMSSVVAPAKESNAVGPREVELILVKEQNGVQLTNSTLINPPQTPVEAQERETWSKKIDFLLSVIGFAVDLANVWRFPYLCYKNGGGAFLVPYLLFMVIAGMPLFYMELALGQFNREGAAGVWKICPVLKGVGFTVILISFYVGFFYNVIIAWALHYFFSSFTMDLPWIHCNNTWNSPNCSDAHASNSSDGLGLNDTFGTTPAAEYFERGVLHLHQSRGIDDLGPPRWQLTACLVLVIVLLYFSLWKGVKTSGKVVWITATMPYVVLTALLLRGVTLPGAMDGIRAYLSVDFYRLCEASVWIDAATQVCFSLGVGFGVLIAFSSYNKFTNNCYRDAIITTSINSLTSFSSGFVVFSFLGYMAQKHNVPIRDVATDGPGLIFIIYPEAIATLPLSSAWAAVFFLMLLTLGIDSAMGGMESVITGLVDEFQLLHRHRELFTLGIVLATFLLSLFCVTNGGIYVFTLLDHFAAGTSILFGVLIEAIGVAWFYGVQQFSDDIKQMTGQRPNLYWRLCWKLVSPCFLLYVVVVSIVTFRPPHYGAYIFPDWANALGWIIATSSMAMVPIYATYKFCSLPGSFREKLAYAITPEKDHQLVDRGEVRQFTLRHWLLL

According to ChEMBL document CHEMBL1129037 (J Med Chem, 1996):

Experiments:
[1] = biological target: T1, Sodium-dependent dopamine transporter (Rattus norvegicus, UniProt P23977); assay: Inhibition of [3H]WIN-35428 binding to dopamine transporter using rat striatal tissue; format: tissue-based, Striatum
[2] = biological target: T1, Sodium-dependent dopamine transporter; assay: Inhibitory activity against [3H]dopamine uptake in rat striatal tissue; format: functional, tissue-based, Striatum

| SMILES | IC50 [1] [µM] | IC50 [2] [µM] |
| --- | --- | --- |
| COC(=O)[C@@H](c1ccc(C(C)(C)C)cc1)[C@@H]1CCCCN1 | 13.5 | 9.35 |
| COC(=O)C(c1ccc(C(C)(C)C)cc1)C1CCCCN1 (single isomer, unassigned) | 41.3 | 52.5 |
